Columns and labels:
Loucy cells = experiment: Cytotoxicity; type: cell-based; settings: Homo sapiens, 120 h, read-out: Cytotoxicity EC50, Loucy
697 cells = experiment: Cytotoxicity; type: cell-based; settings: Homo sapiens, 120 h, read-out: Cytotoxicity EC50, 697

COc1cc(OC)c2c(=O)[nH]c(-c3cc(C)c(OCCO)c(C)c3)nc2c1 [Compound 3, RVX-208]
EC50 (Loucy cells): > 5 µM | EC50 (697 cells): > 5 µM

Reference: paper PMC5733700 (Bioorganic & medicinal chemistry, 2017)
